# Target: full-length ERα (Homo sapiens, UniProt P03372)
# Sequences of proteins named here, by UniProt entry; tags and fusion partners are left off.
# UniProt P03372, whole entry: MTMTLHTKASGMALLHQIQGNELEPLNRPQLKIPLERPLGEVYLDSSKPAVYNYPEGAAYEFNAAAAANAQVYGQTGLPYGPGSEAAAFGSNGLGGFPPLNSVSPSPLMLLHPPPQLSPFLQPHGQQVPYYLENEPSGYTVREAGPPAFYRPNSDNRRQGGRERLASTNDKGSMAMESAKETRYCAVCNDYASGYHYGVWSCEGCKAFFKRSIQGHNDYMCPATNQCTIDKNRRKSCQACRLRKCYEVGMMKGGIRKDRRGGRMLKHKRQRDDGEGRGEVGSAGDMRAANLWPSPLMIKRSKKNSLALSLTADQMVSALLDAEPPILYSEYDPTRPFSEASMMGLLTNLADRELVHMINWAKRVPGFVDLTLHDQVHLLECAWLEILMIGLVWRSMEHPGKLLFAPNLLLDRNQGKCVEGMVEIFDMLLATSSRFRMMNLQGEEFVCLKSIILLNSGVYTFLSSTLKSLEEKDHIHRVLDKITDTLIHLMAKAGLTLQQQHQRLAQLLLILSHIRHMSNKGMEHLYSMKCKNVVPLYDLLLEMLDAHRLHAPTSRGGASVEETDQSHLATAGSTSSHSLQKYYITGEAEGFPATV
# Experiment: ERα transient transfection 3X-ERE-luciferase assay, antagonist mode
# Assay type: cell-based
# Settings: CV1 cells, in words
smiles,measurement,value
"C[C@]12CC[C@@H]3c4ccc(O)cc4C[C@@H](CCCCCCCCC[S+]([O-])CCCC(F)(F)C(F)(F)F)[C@H]3[C@@H]1CC[C@@H]2O (stereo partly shown) [ICI,182780, ICI 182,780, reference compound]",ER inhibition,completely blocked ERα activity at nM concentrations

# From article PMC3722857 (Chemico-biological interactions, 2013)
